The target of the assay is T1, rabbit reticulocyte 15-LO (Oryctolagus cuniculus, UniProt P12530).
T1 construct: rabbit reticulocyte 15-LO; from tissue; host or cells: rabbit reticulocytes
T1 sequence (P12530 1-663): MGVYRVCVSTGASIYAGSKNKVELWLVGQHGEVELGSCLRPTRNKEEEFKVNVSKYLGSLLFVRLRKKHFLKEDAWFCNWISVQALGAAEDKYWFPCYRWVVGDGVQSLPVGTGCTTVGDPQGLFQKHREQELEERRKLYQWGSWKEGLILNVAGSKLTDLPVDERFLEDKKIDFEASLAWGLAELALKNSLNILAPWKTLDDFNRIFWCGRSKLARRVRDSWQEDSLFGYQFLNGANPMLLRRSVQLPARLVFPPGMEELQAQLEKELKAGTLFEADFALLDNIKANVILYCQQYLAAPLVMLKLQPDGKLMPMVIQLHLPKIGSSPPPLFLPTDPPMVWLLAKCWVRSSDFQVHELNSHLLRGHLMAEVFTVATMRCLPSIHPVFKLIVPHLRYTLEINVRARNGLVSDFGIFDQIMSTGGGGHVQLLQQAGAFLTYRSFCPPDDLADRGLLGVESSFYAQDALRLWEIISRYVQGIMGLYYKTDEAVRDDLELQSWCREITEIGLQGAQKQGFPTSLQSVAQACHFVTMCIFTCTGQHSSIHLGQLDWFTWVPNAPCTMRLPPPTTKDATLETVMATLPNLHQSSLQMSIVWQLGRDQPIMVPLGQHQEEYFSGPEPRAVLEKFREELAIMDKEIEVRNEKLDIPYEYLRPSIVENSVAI
The experiment in a line: 15-LO inhibition, rabbit reticulocyte 15-LO with linoleic acid substrate, HPLC method of Auerbach et al. Format: biochemical. How it is done: Two in vitro assays were utilized, both utilizing rabbit reticulocyte 15-LO, and linoleic acid as substrate, to enzymatically produce a peroxide oxidation product known as 13(S)-HPODE. N-Benzoyl leucomethylene blue was utilized as a calorimetric reagent for detection and quantification of the peroxide formation. Also, HPLC was utilized to quantify the oxidation following incubation at 4° C. for 10 minutes.

As usually defined, the IC50 is the concentration that gives 50% inhibition. Read a low IC50 as higher potency.

In turn, `c1ccc2c(c1)SCc1c-2[nH]c2ccccc12` [Compound A, 6,11-dihydro[1]benzothiopyrano[4,3-b]-indole] returned an IC50 of 1300 nM. Further, the “inhibits 15-LO more potently than 5-LO” value (15-LO versus 5-LO) was “at least 100 times”.

For the origin of these results see patent US5972980A, “Method for treating and preventing inflammation and atherosclerosis” (Warner-Lambert Company, priority 1999, dated 1999).
